Antibody variant affinities, Ab-95 light chain, assay 2

Reference: Engelhart et al. 2022, doi:10.1038/s41597-022-01779-4. File: FLAb, binding data.

All variants were tested on one target, the spike HR2 peptide PDVDLGDISGINAS (SARS-CoV-2).

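In library AAYL52, one, two or three CDR residues were substituted; doubles and triples were drawn at random. AlphaSeq pools MATa yeast showing the antibodies with MATalpha yeast showing the peptide. After mating in shaken culture at 30 °C for 16 h, diploids were selected and their barcode pairs sequenced. Read counts were normalised to the haploid input and turned into Kd by a linear fit to BCL2-family pairs of known affinity, for each replicate. The assay was run in three technical replicates.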

Parent scFv Ab-95: VH joined to VL by a 15-residue (Gly4Ser)3 linker. Changes lie in the light chain CDRs alone.
VH: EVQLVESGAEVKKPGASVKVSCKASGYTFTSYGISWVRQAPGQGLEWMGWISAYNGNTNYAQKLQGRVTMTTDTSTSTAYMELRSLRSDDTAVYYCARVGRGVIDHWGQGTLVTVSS
VL: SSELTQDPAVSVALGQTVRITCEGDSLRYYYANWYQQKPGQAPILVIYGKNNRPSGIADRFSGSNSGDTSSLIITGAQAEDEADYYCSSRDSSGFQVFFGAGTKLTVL

Positions count from residue 1 of the parent VL; D25P puts P in place of D.
Kd is apparent (estimated from mating counts) and averaged on the log scale over replicates with a signal. Smaller is tighter.
"nd" marks a missing value. The strain was present, yet no cells mated with the target were sequenced in any replicate, which points to weak or no binding.
Parent in this assay: reference entry 200 nM, copy in this library 180 nM.
As a blank, each scFv also met three strains without target: over library AAYL52, 28% of these pairings were detected, typically at 8.2 µM and seldom below 800 nM.

64 nM (3 of 3 replicates) for D25P/K50E.
1.5 µM (3 of 3 replicates) for P54F/G94C.
1.4 µM (1 of 3 replicates) for L27T/Y30K/R53Y.
24 µM (1 of 3 replicates) for Y29G/N33Y/P54Y.
1.0 µM (3 of 3 replicates) for E23A/S26C/R28A.
1.6 µM (1 of 3 replicates) for R28H/Y29S/G94S.
3.1 µM (1 of 3 replicates) for L27E/Y31C/N51E.
3.4 µM (3 of 3 replicates) for D25H/R28D/R53H.
18 µM (2 of 3 replicates) for L27A/N51V/F98V.
nd (0 of 3 replicates) for G49Q/R53P/R90W.
18 µM (3 of 3 replicates) for S26K/D91W/F95R.
570 nM (2 of 3 replicates) for D25R/Y31K/R53F.
5.1 µM (1 of 3 replicates) for D25R/G94E/V97S.
nd (0 of 3 replicates) for Y31Q/R53S/G94P.
520 nM (3 of 3 replicates) for S92G/G94Y.
3.1 µM (2 of 3 replicates) for R53N/G94L/Q96T.
3.7 µM (3 of 3 replicates) for D25I/D91H/F98R.
2.3 µM (2 of 3 replicates) for R28W/R53S/S89W.
30 µM (3 of 3 replicates) for Y31I/N33Q/F95I.
22 nM (3 of 3 replicates) for Y29G/S89C/S92F.
71 µM (2 of 3 replicates) for N52I/R53D/S92C.
6.4 µM (3 of 3 replicates) for Y31Q/G94A/V97Q.
26 µM (2 of 3 replicates) for D25R/L27M/N51K.
25 µM (2 of 3 replicates) for L27S/G94P/Q96A.
8.1 µM (2 of 3 replicates) for N51M/N52F/S89P.
120 nM (3 of 3 replicates) for S26Q/N33G/K50F.
120 nM (3 of 3 replicates) for D25A/Y30R/F98Q.
76 µM (1 of 3 replicates) for N33P/G49L/S93H.
5.3 µM (1 of 3 replicates) for N51V/P54D/R90Y.
13 µM (1 of 3 replicates) for K50L/N52P/F95H.
5.6 µM (1 of 3 replicates) for L27H/N51L.
12 µM (3 of 3 replicates) for A32M/S55T.
1.5 µM (2 of 3 replicates) for K50T/S55C/S93M.
nd (0 of 3 replicates) for G24R/P54V/R90M.
470 nM (3 of 3 replicates) for Y29Q/F95A/Q96V.
830 nM (1 of 3 replicates) for D25W/R28H/S89H.

Repeated from above, the 6 best binders with a signal in all replicates:

changes	apparent Kd	detected
Y29G/S89C/S92F	22 nM	3 of 3
D25P/K50E	64 nM	3 of 3
D25A/Y30R/F98Q	120 nM	3 of 3
S26Q/N33G/K50F	120 nM	3 of 3
Y29Q/F95A/Q96V	470 nM	3 of 3
S92G/G94Y	520 nM	3 of 3